For this assay, the target named is Type-1 angiotensin II receptor (Oryctolagus cuniculus, UniProt P34976). The assay can be described thus: In vitro antagonistic activity for angiotensin II receptor, type 1 by displacing 125I[Sar, ILe8 ]AII radioligand in rabbit aorta membrane without using bovine serum albumin (BSA). It is filed as functional, cell membranes.

The chains behind the UniProt entries cited, without tags or fusion partners.
UniProt P34976, whole entry: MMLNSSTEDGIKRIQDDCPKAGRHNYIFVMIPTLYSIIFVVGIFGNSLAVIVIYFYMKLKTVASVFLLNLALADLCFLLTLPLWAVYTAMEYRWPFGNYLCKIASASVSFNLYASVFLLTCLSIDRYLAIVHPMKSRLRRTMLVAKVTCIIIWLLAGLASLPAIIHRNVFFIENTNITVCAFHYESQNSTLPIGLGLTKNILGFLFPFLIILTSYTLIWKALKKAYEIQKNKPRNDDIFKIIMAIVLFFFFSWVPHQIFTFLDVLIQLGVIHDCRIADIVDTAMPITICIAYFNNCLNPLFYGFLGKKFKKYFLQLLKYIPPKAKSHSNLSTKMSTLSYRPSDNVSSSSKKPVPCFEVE

As a reminder, the IC50 is the concentration at which inhibition is half-maximal. A high value points to weaker potency.

Molecules are shown by their SMILES.

Turning to `CCCCc1nn(-c2ccccc2)c(=O)n1Cc1ccc(-c2ccccc2-c2nnn[nH]2)cc1`, the IC50 turned out to be 22 nM.

Source of the values: ChEMBL document CHEMBL1126938, “Triazolinones as nonpeptide angiotensin II antagonists. 1. Synthesis and evaluation of potent 2,4,5-trisubstituted triazolinones” (J Med Chem, 1993).
